Settings: healthy male subjects
Procedure: The dose level tested in our Phase 1b trial was 600 mg/day.
A 2-week, single-center, double-blind, randomized, placebo-controlled study was conducted in healthy male subjects age 18-55 years with BMI between 18-25 kg/m^2 and a stable body weight (defined as the Day 1 pre-dose body weight to be within ±2.0% of screening body weight). […] Food was freely available to all subjects during the study. The difference in mean change in absolute body weight after administration of OLZ+PBO compared to OLZ+MIRI was evaluated using a repeated measures model with imputation applied to missing values.
(HOMA2-IR values were calculated from fasted glucose and insulin levels using the HOMA (HOMA2 Model) Calculator® application programming interface for SAS (Oxford University 2013, available at the website www.dtu.ox.ac.uk/homacalculator)).

SMILES: Cc1cc2c(s1)Nc1ccccc1N=C2N1CCN(C)CC1 [olanzapine, reference compound]
- HOMA2-IR increase from baseline on Day 15 (listed as miricorilant = MIRI 600 mg/day + OLZ 10 mg/day, listed as olanzapine = placebo + OLZ 10 mg/day): 1.21
- Insulin increase from baseline, percent, day 8 (listed as miricorilant = olanzapine+miricorilant, listed as olanzapine = olanzapine+placebo): 121%

— patent publication US11903945B2, “Methods of treating antipsychotic-induced weight gain with miricorilant” (Corcept Therapeutics Incorporated, priority 2019, dated 2024)
